Molecular target: T1, human CAR (hCAR) (Homo sapiens, UniProt Q14994)
T1 sequence (Q14994 1-348 isoform Q14994-2): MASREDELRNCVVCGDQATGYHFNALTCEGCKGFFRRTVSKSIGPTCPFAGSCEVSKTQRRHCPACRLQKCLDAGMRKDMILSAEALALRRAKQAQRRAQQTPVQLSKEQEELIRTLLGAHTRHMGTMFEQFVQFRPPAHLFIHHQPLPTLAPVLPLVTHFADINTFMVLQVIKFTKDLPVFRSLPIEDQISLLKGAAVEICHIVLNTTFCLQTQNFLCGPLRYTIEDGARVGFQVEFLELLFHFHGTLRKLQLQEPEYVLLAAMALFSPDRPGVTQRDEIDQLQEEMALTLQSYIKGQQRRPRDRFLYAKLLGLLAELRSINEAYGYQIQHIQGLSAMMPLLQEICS
Test: hCAR luciferase reporter qHTS, antagonist mode (HepG2-CYP2B6-hCAR cells, CITCO co-treatment);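 further: stable HepG2 line carrying hCAR plus a CYP2B6 promoter (PBREM/XREM) luciferase reporter, 1536-well format, 24 h compound exposure at 37 °C, then luminescence read with ONE-Glo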
Settings: follow-up cherry-pick, relative to PK11195 (100%)

- Follow-up Confirmation Efficacy: -101%
Structure (SMILES): CC(C)C[C@H](NC(=O)[C@H](Cc1ccccc1)NC(=O)c1cnccn1)B(O)O [Bortezomib]
